Assay results published in US20250186563A1, “UNIT DOSE FORMULATION OF ANTIDOTES FOR FACTOR XA INHIBITORS AND METHODS OF USING THE SAME” (Alexion Pharmaceuticals, Inc., priority 2009, published 2025).
“Also recorded” adds a separate entry of the source.

How the values were obtained:
thrombin generation = assay: Thrombin generation assay in platelet poor plasma; type: biochemical, human; details: PPP
Experimental: PRP and PPP were prepared by spinning the anticoagulated blood at ˜100× gravity or 1000× gravity for 20 minutes, respectively, at room temperature. 75-100 microliter (uL) plasma was mixed with CaCl2) and Z-Gly-Gly-Arg-aminomethylcoumarin (Z-GGR-AMC, a thrombin fluorogenic substrate). Tissue factor (Innovin, Dade Behring) was added to initiate the generation of thrombin. For a typical experiment, the reaction mixture contained 15 millimolar (mM) Ca^2+, 100 micromolar (M) Z-GGR-AMC, and 0.1 nanomolar (nM) tissue factor (TF) (Innovin). Thrombin formation was monitored continuously at 37° C. by a fluorometric plate reader (Molecular Devices) measuring the relative fluorescence units (RFU). Inhibitor and antidote, when present, were pre-incubated with plasma for 20 minutes at room temperature before initiation of thrombin generation.

fXa = biological target: T1, fXa (Homo sapiens, UniProt P00742); assay: fXa chromogenic activity assay: inhibition by fXa inhibitors and reversal by antidote; type: biochemical
T1 construct: purified active human plasma derived fXa (3 nM); from tissue; host or cells: human plasma

[1] = system: clot formation in human platelet poor plasma; assay: Clotting prolongation assay, 96-well plate format (OD405 turbidity); type: biochemical; details: 563 nM antidote; enoxaparin 0.3125-1.25 U/mL; aPTT reagent
Experimental: Two clotting assay formats were used to test the effects of factor Xa inhibitors and the antidote on clotting prolongation. In the first format, a 96-well plate was used to measure multiple samples at the same time. In the second assay format, aPTT was measured with a conventional coagulation instrument (MLA Electra 800 automatic coagulation timer).
In the 96-well plate format method, human platelet poor plasma or platelet rich plasma was prepared similarly as procedures in Example 2. 75-100 μL plasma was recalcified with CaCl2), incubated at 37° C. for 3 minutes and clot formation was initiated by adding tissue factor (Innovin, Dade Behring) or an aPTT reagent (Actin FS, Dade Behring). Change of OD405 was monitored continuously by a plate reader (Molecular Devices). Clotting time was defined as the time (second) when the half maximal value of absorbance (OD405 nm) change was reached. Factor Xa inhibitor and antidote, when present, were pre-incubated with plasma at room temperature for 20 minutes before initiation of the reaction.
In FIG. 18, the effect of r-Antidote to reverse the inhibitory effect of LMWH enoxaparin (Sanofi-Aventis) was tested by turbidity changes in human plasma. Enoxaparin (0-1.25 U/mL) was incubated at 22° C. for 20 min with or without 508 nM r-Antidote. Turbidity changes were measured according to procedures described in Example 3. 508 nM r-Antidote substantially corrected (>75%) the inhibitory effect of 0.3125-1.25 U/mL Enoxaparin.
A turbidity assay was used to test the effect of fXa inhibitors and r-Antidote on prolongation of clotting times. In this format, a 96-well plate was used to measure multiple samples at the same time. Human platelet poor plasma was prepared as in Example 2. […] Change of OD405 was monitored continuously by a plate reader (Molecular Devices). Clotting time was defined as the time (seconds) for reaching the half maximal value for change in absorbance (OD405 nm). […]

[2] = system: betrixaban anticoagulation (whole blood INR); assay: In vivo mouse model, PK-PD of betrixaban with antidote; set-up: species or system C57Bl/6 mice
Experimental: 15 mg/kg was used for antidote treated group. A single intravenous (IV) injection of antidote (300 ug/200 μL) or vehicle (normal saline, 200 μL) was administered 5 minutes prior to the 1.5 hr. time point.
Blood samples (0.5 mL) were obtained in 50 μL trisodium citrate. Whole blood INR was measured using Hemochron Jr. cartridges (International Technidyne Corporation) per the manufacture's instructions.
15 mg/kg was used for antidote (300 μg/200 μL) treated group.
Vehicle (control_1) or r-Antidote (1 injection) was administered 5 min prior to the 1 hr. time point. […] Mouse blood samples were taken at 2 hr. for vehicle (control_2) and r-Antidote (2 injections) treated mice.

[3] = system: aPTT of pooled human plasma; assay: aPTT human plasma clotting assay (MLA Electra 800 coagulation timer); type: biochemical
thrombin = biological target: T2, thrombin (Homo sapiens, UniProt P00734); assay: Thrombin chromogenic assay (S2288) with argatroban; type: biochemical; details: antidote up to 538 nM; thrombin 5 nM; argatroban 50 nM
T2 construct: purified human thrombin (5 nM), argatroban (50 nM)
Experimental: The effect of the antidote des-Gla anhydro-fXa (SEQ ID NO:10) on thrombin activity toward a chromogenic substrate S2288 (200 M) was measured similarly as before with or without Argatroban, a specific small molecule IIa inhibitor.
After incubation at room temperature for 20 min, an amidolytic substrate 52288 (200 uM) was added to the mixture and the rate of p-nitroanilide substrate cleavage was monitored by absorbance at 405 nm.

[4] = pd-Antidote treated mice, […] after 15 mg/kg betrixaban PO

Molecule	inhibition of plasma thrombin generation (thrombin generation; about 115 nM anhydro-fXa)	procoagulant (fXa chromogenic) activity compared with active fXa (fXa; anhydro-fXa alone)	reversal of fXa inhibition by betrixaban (fXa; purified system with active fXa and betrixaban)	reversal of anticoagulant activity of betrixaban (thrombin generation) (thrombin generation; 680 nM antidote, varying betrixaban)	effect on anticoagulant activity of enoxaparin [1]	reduction of functional betrixaban / correction of whole blood INR ([2]; mice, betrixaban 15 mg/kg PO, single IV injection of antidote (300 ug))	% Correction, Mean [2, 4]	Expected INR, Mean [2, 4]	Measured INR, Mean ([2]; pd-Antidote treated mice, […] after 15 mg/kg betrixaban PO, 5 min after antidote injection)	antidote concentration for return of aPTT to near normal level ([3]; 400 nM betrixaban)	EC50 ([3]; 400 nM betrixaban, read-out: EC50 of the antidote (aPTT reversal))	effect on aPTT of control plasma ([3]; 2576 nM antidote alone)	effect on thrombin activity and its inhibition by argatroban (thrombin)
anhydro-fXa: Gla-domain containing fXa in which dehydroalanine replaces the active-site serine (SEQ ID NO: 20) (protein, dehydroalanine replaces active-site serine; MOD_RES 324 Dehydroalanine) ANSFLEEMKKGHLERECMEETCSYEEAREVFEDSDKTNEFWNKYKDGDQCETSPCQNQGKCKDGLGEYTCTCLEGFEGKNCELFTRKLCSLDNGDCDQFCHEEQNSVVCSCARGYTLADNGKACIPTGPYPCGKQTLERIVGGQECKDGECPWQALLINEENEGFCGGTILSEFYILTAAHCLYQAKRFKVRVGDRNTEQEEGGEAVHEVEVVIKHNRFTKETYDFDIAVLRLKTPITFRMNVAPACLPERDWAESTLMTQKTGIVSGFGRTHEKGRQSTRLKMLEVPYVDRNSCKLSSSFIITQNMFCAGYDTKQEDACQGDAGGPHVTRFKDTYFVTGIVSWGEGCARKGKYGIYTKVTAFLKWIDRSMKTRGLPKAKSHAPEVITSSPLK	almost completely inhibited	negligible	reverses										
pd-Antidote: des-Gla anhydro fXa derivative having the amino acid residues of SEQ ID NO. 10 (protein, dehydroalanine at active-site serine; MOD_RES 280 Dehydroalanine) KDGDQCETSPCQNQGKCKDGLGEYTCTCLEGFEGKNCELFTRKLCSLDNGDCDQFCHEEQNSVVCSCARGYTLADNGKACIPTGPYPCGKQTLERIVGGQECKDGECPWQALLINEENEGFCGGTILSEFYILTAAHCLYQAKRFKVRVGDRNTEQEEGGEAVHEVEVVIKHNRFTKETYDFDIAVLRLKTPITFRMNVAPACLPERDWAESTLMTQKTGIVSGFGRTHEKGRQSTRLKMLEVPYVDRNSCKLSSSFIITQNMFCAGYDTKQEDACQGDAGGPHVTRFKDTYFVTGIVSWGEGCARKGKYGIYTKVTAFLKWIDRSMKTRGLPKAKSHAPEVITSSPLK				complete reversion; also recorded: substantially complete restoration	significantly neutralized	> 50%	77.2%	4.0	1.9	higher than 1610 nM	~656 nM	no effect	does not detectably affect
